From PMC7900114, “Three-dimensional structure of human cyclooxygenase (hCOX)-1” (Scientific Reports, 2021)

Chains of the proteins cited; added tags and fusions are not shown. Residues count along the entry.
UniProt P23219, 24-599: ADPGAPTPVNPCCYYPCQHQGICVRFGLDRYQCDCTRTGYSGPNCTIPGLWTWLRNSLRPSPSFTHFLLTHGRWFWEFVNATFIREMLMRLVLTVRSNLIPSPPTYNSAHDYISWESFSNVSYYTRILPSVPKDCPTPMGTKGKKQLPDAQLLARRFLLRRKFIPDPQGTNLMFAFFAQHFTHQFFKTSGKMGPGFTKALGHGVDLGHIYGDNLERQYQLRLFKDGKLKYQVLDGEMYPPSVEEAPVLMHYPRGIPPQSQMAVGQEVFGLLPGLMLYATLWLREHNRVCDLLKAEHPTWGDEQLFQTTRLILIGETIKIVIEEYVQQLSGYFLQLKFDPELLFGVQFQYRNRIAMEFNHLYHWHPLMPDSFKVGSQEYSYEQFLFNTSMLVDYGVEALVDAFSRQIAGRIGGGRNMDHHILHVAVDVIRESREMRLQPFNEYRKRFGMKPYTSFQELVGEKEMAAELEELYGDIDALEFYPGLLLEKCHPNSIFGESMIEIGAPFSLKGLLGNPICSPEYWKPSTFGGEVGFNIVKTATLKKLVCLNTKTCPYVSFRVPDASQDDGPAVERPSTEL

Molecular target: hCOX-1 (Homo sapiens, UniProt P23219)
Experiment: biochemical

IC50: 23 µM
Structure (SMILES): COc1ccc(-c2noc(CC(=O)O)c2-c2ccc(OC)cc2)cc1 [mofezolac]
